Source: patent US5187157A, “Peptide boronic acid inhibitors of trypsin-like proteases” (Du Pont Merck Pharmaceutical Company, priority 1988, dated 1993)

Assays:
thrombin = settings: literature; cited from earlier work
Human thrombin = molecular target: T1, Human thrombin (Homo sapiens, UniProt P00734); experiment: Inhibition of Thrombin (Esterase Activity); format: biochemical; settings: inhibitor 5 nM; activity remaining 10 to 20 min after initiation
T1 construct: purchased R.Q.P. Laboratories, South Bend, IN Lot HT102
Procedure: In the Examples which follow, the hydrolytic activity of each enzyme is measured in both the presence and absence of inhibitor and the percent enzyme activity determined. […] A steady state is reached fairly rapidly and nears completion within 5 min. Activity is evaluated between 10-20 min after the components are mixed to insure that reaction components are at equilibrium. The lowest concentration of inhibitor tested is determined by the estimated concentration of enzyme. […] The maintenance of pseudo-first-order reaction conditions and the sensitivity of the respective assays sets the lowest limit level of inhibitor tested at 10 nM for kallikrein inhibitors and 5 nM for thrombin inhibitors.
A stock solution of thrombin was prepared in 0.010M PIPES Buffer, pH 6.0, containing 0.75 M sodium chloride. […] The initial concentration of substrate was 0.10 mM and the concentration of thrombin was 1.0 nM (based on weight).

Row | SMILES | Ki (thrombin) | Percent Activity (Human thrombin)
1 | CC1CNc2c(cccc2S(=O)(=O)N[C@@H](CCCNC(=N)N)C(=O)N2CC[C@@H](C)C[C@@H]2C(=O)O)C1 (stereo partly drawn) [(2R,4R)-4-methyl-1[N^2 -{(3-methyl-1,2,3,4-tetrahydro-8-quinolinyl)sulfonyl}-L-arginyl]-2-piperid inecarboxylic acid] | 0.019 µM | 
2 | CC(=O)N[C@H](Cc1ccccc1)C(=O)N1CCC[C@H]1C(=O)N[C@@H](CCCN=C(N)N)B(O)O.Cl [Ac-(D)Phe-Pro-boroArg-OH, Ac-(D)Phe-Pro-boroArg-OH.HCl] |  | 3%
